Measurements published in US8497349B2, “Use of multivalent synthetic ligands of surface nucleolin for treating cancer or inflammation” (Centre National de la Recherche Scientifique (CNRS), priority 2006, dated 2013).

Chains of the proteins cited; added tags and fusions are not shown.
UniProt P19338, whole entry: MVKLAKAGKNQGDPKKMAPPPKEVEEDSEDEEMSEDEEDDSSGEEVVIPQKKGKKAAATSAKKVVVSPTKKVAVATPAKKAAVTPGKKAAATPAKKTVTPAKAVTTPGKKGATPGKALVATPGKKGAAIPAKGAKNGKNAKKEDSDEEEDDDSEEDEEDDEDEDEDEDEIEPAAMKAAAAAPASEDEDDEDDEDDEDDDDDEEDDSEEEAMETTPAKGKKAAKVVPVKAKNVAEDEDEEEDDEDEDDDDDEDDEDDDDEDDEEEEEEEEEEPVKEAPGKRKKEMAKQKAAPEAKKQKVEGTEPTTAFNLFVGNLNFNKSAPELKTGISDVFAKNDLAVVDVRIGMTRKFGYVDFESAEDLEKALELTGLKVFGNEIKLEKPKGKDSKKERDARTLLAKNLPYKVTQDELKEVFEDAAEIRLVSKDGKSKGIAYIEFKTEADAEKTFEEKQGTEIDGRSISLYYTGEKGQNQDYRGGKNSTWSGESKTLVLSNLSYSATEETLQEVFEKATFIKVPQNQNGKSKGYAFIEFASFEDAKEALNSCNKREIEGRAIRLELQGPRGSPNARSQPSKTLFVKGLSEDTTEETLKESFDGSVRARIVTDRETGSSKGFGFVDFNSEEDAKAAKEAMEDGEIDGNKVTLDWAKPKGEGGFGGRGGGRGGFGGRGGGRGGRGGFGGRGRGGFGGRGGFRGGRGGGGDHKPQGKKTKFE

Experiments:
Assay type in all cases: cell-based
[1] = system: NIH-3T3 cells
Experimental: FIG. 3. Effect of A. anti-nucleolin (anti Nu), B. isotypical IgG, C. peptide F3, and D. HB-19 on the proliferation of NIH-3T3 cells stimulated by HARP. Quiescent NIH-3T3 cells are stimulated or not by 4 nM of HARP in the presence or not of HB19 at the concentrations indicated. After 24 hours of incubation, cell proliferation was determined by measuring the incorporation of tritiated thymidine. The results are given as a percentage with respect to the control stimulated by HARP (100%). MSD (threshold), (**p<0.01 and ***p<0.001).
FIG. 4. Effect of pretreatment of NIH-3T3 cells with HB19 for one hour on proliferation induced by HARP. NIH-3T3 cells were treated with HB19 for one hour then washed and stimulated or not by 3.6 nM of HARP. After 24 hours of incubation, cell proliferation was determined by measuring the incorporation of tritiated thymidine. The results are given as a percentage with respect to the control stimulated by HARP (100%). MSD (threshold), (**p<0.01 and ***p<0.001).
FIG. 12. Effect of HB-19 and Nucant 01 on the growth of NIH-3T3 cells stimulated by HARP. Quiescent NIH-3T3 cells were stimulated or not by 4 nM of HARP in the presence of HB19 or Nucant 01 at the concentrations indicated. After 24 hours of incubation, cell proliferation was determined by measuring the incorporation of tritiated thymidine. The results (mean of 3 points) are given as the percentage of cell proliferation with respect to the control stimulated by HARP in the absence of HB19 and Nucant 01 (100% cell proliferation).
FIG. 13. Effect of HB-19, Nucant 2 and Nucant 3 on the growth of NIH-3T3 cells stimulated by HARP. Quiescent NIH-3T3 cells were stimulated or not by 4 nM of HARP in the presence of HB19, Nucant 2 or Nucant 3 at the concentrations indicated (0.1, 0.25 and 0.5>M). After 24 hours of incubation, cell proliferation of NIH-3T3 cells was determined by measuring the incorporation of tritiated thymidine. The results (mean of 3 points) are given as the percentage of cell proliferation with respect to the control stimulated by HARP (100% cell proliferation). The IC50 concentrations (concentration leading to 50% inhibition of cell proliferation with respect to the control stimulated by HARP) are also given.
The role played by nucleolin in the biological activity of the HARP molecule was studied in a series of experiments: the mitogenic activity of HARP, tested by measuring the incorporation of tritiated thymidine by NIH 3T3 cells, was evaluated in the presence or absence of a monoclonal antibody which specifically recognizes nucleolin.
The effect of Nucant 01 on the proliferation of NIH-3T3 cells stimulated by HARP was compared with that of pentavalent compound HB-19. Quiescent NIH-3T3 cells were stimulated or not by 4 nM of HARP in the presence of HB19 or Nucant 01 at the concentrations indicated (0.1, 0.2, 0.4, 1, 2 and 4 μM). After 24 hours of incubation, cell proliferation of NIH-3T3 cells was determined by measuring the incorporation tritiated thymidine as described earlier.
The effect of Nucant 2 and Nucant 3 on the proliferation NIH-3T3 cells triggered by HARP was compared to that of pentavalent compound HB-19. Quiescent NIH-3T3 cells were stimulated or not by 4 nM by HARP in the presence of HB19, Nucant 2, or Nucant 3 at the concentrations indicated (0.1, 0.25 and 0.5 μM). After 24 hours of incubation, cell proliferation of NIH-3T3 cells was determined by measuring the incorporation tritiated thymidine as described earlier.

[2] = system: NIH-3T3 cells; assay: Proliferation of NIH-3T3 cells stimulated by 5% foetal calf serum (tritiated thymidine incorporation); conditions: non-stimulated NIH-3T3 cells
Experimental: FIG. 5. Effect of HB-19 on the proliferation of NIH-3T3 cells stimulated by 0.2 nM FGF-2 (A) or by 5% foetal calf serum (B). Quiescent NIH-3T3 cells are stimulated by FGF-2 or by 5% serum in the presence or not of HB19 at the concentrations indicated. After 24 hours of incubation, cell proliferation was determined by measuring the incorporation of tritiated thymidine. The results are given as a percentage with respect to the control stimulated by HARP (100%). MSD (threshold), (**p<0.01 and ***p<0.001).
FIG. 14. Effect of NUCANT 3, 6 and 7 on the proliferation of NIH-3T3 cells stimulated by 5% FCS. NIH-3T3 cells are made quiescent by serum deprivation are stimulated by 5% FCS in the presence or not of various NUCANT 3, 6 and 7 concentrations ranging from 0.125 to 2 μM. After 24 hours of incubation, cell proliferation was determined by measuring the incorporation of tritiated thymidine. The results are given as a percentage with respect to the control cells stimulated by 5% FCS. ID50 is indicated by the dotted line.
The effect of Nucant 3 on the proliferation of NIH-3T3 cells treated by 5% of FCS was also compared to that of compound HB-19. NIH-3T3 cells made quiescent by serum deprivation were stimulated by 5 FCS in the presence or not of different concentrations of NUCANT 3, 6 or 7 ranging from 0.125 to 2 μM. After 24 hours in incubation, cell proliferation is determined by measuring the incorporation of tritiated thymidine as described earlier.
The effect of hexavalent compounds Nucant 6 and Nucant 7 on the proliferation of NIH-3T3 cells triggered by 5% FCS was compared with that of pentavalent compound HB-19. NIH-3T3 cells made quiescent by serum deprivation stimulated by 5% FCS in the presence of various concentrations of NUCANT 3, 6 or 7 ranging from 0.125 to 2 μM. After 24 hours of incubation, cell proliferation was determined by measuring the incorporation of tritiated thymidine as described above.

[3] = target: surface nucleolin (Homo sapiens, UniProt P19338); assay: Activity of surface nucleolin in HeLa P4 cells; parameters: endogenous in cells; host or cells: HeLa P4 cells
Experimental: FIG. 15. Nucant 6 and Nucant 7 show better anti-surface nucleolin activity than HB-19. ID50: concentration in μM which inhibits surface nucleolin by 50%. ID95: concentration in μM which inhibits surface nucleolin by 95%.
The activity of surface nucleolin was tested in HeLa P4 cells using the technique we have described previously (13).

IC50 ([3]; HeLa P4 cells, read-out: ID50 value (Inhibitory Dose at 50%), surface nucleolin activity) [nM]	inhibition at 0.8 µM ([3]; M-HeLa, 0.8 μM, HeLa P4 cells) [%]	Structure (SMILES)	IC50 ([1]; 24 h) [nM]	IC50 ([1]; 4 nM HARP, experiment of FIG. 13, read-out: IC50 (concentration leading to 50% inhibition of cell proliferation)) [nM]	effect on non-stimulated cells (toxicity) [2]	IC50 [3] [nM]
–	–	CC(=O)NC(C)(C)C(=O)N[C@@H](CCCCNC(=O)[C@H](CCCNC(=N)N)NC(=O)[C@@H]1CCCN1C[C@@H](N)CCCCN)C(=O)NC(C)(C)C(=O)NCC(=O)NC(C)(C)C(=O)N[C@@H](CCCCNC(=O)[C@H](CCCNC(=N)N)NC(=O)[C@@H]1CCCN1C[C@@H](N)CCCCN)C(=O)NC(C)(C)C(=O)NCC(=O)NC(C)(C)C(=O)N[C@@H](CCCCNC(=O)[C@H](CCCNC(=N)N)NC(=O)[C@@H]1CCCN1C[C@@H](N)CCCCN)C(=O)NC(C)(C)C(=O)NCC(=O)NC(C)(C)C(=O)N[C@@H](CCCCNC(=O)[C@H](CCCNC(=N)N)NC(=O)[C@@H]1CCCN1C[C@@H](N)CCCCN)C(=O)NC(C)(C)C(=O)NCC(=O)NC(C)(C)C(=O)N[C@@H](CCCCNC(=O)[C@H](CCCNC(=N)N)NC(=O)[C@@H]1CCCN1C[C@@H](N)CCCCN)C(=O)NC(C)(C)C(=O)NCC(N)=O [Nucant 2]	1500	–	–	–
–	–	CC(=O)N[C@@H](CCCCNC(=O)[C@H](CCCNC(=N)N)NC(=O)[C@@H]1CCCN1C[C@@H](N)CCCCN)C(=O)NC(C)(C)C(=O)NCC(=O)N[C@@H](CCCCNC(=O)[C@H](CCCNC(=N)N)NC(=O)[C@@H]1CCCN1C[C@@H](N)CCCCN)C(=O)NC(C)(C)C(=O)NCC(=O)N[C@@H](CCCCNC(=O)[C@H](CCCNC(=N)N)NC(=O)[C@@H]1CCCN1C[C@@H](N)CCCCN)C(=O)NC(C)(C)C(=O)NCC(=O)N[C@@H](CCCCNC(=O)[C@H](CCCNC(=N)N)NC(=O)[C@@H]1CCCN1C[C@@H](N)CCCCN)C(=O)NC(C)(C)C(=O)NCC(=O)N[C@@H](CCCCNC(=O)[C@H](CCCNC(=N)N)NC(=O)[C@@H]1CCCN1C[C@@H](N)CCCCN)C(=O)NC(C)(C)C(=O)NCC(N)=O [Nucant 3]	–	1500	No effect	100 to 200
< 100	> 95	CC(=O)N[C@@H](CCCCNC(=O)[C@H](CCCNC(=N)N)NC(=O)[C@@H]1CCCN1C[C@@H](N)CCCCN)C(=O)NC(C)(C)C(=O)NCC(=O)N[C@@H](CCCCNC(=O)[C@H](CCCNC(=N)N)NC(=O)[C@@H]1CCCN1C[C@@H](N)CCCCN)C(=O)NC(C)(C)C(=O)NCC(=O)N[C@@H](CCCCNC(=O)[C@H](CCCNC(=N)N)NC(=O)[C@@H]1CCCN1C[C@@H](N)CCCCN)C(=O)NC(C)(C)C(=O)NCC(=O)N[C@@H](CCCCNC(=O)[C@H](CCCNC(=N)N)NC(=O)[C@@H]1CCCN1C[C@@H](N)CCCCN)C(=O)NC(C)(C)C(=O)NCC(=O)N[C@@H](CCCCNC(=O)[C@H](CCCNC(=N)N)NC(=O)[C@@H]1CCCN1C[C@@H](N)CCCCN)C(=O)NC(C)(C)C(=O)NCC(=O)N[C@@H](CCCCNC(=O)[C@H](CCCNC(=N)N)NC(=O)[C@@H]1CCCN1C[C@@H](N)CCCCN)C(=O)NC(C)(C)C(=O)NCC(N)=O [Nucant 6]	–	–	No effect	–

Read-outs that look alike come from different tables or passages of the source.
